Values quoted from earlier work as cited in patent publication US5698219A, “Nanoemulsion of the oil water type, useful as an ophthalmic vehicle and process for the preparation thereof” (Laboratorios Cusi, S.A., priority 1994, dated 1997).

Conditions: literature

Substance | cataractogenic effects
lysophosphatidyl choline | possible cataractogenic effects
phosphatidyl choline | possible cataractogenic effects
